Data as given in US11697852B2, “Systems and methods for determining a treatment course of action” (The Regents of the University of Michigan, priority 2013, dated 2023).

Amino acid sequences for entries named in this document (tags omitted).
UniProt P03372, whole entry: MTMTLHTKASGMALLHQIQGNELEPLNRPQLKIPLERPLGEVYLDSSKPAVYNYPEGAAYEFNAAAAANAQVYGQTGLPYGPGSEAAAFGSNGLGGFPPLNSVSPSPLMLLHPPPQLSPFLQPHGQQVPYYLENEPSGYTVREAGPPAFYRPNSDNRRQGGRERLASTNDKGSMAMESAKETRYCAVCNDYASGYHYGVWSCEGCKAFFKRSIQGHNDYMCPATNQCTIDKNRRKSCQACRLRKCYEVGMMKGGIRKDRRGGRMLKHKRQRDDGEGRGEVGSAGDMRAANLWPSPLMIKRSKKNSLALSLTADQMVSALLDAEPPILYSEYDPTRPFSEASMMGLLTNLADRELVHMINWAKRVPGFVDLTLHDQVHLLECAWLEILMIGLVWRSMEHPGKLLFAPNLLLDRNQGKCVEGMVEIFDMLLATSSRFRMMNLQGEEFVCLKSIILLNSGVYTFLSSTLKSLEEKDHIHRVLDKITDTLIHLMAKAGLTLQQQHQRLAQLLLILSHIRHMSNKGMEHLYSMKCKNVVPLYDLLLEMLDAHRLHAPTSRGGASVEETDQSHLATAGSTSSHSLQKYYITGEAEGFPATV

Target: T1, wild type ESR1 (Homo sapiens, UniProt P03372)
T1 construct: expressed in transfected cells; host or cells: HEK-293T
Test: ERE-luciferase reporter assay, wild type ESR1
Format: cell-based
Settings: HEK-293T cells co-transfected with ESR1 plasmid 50 ng and ERE-luciferase; in presence of β-estradiol (FIGS. 4, 8, 9, 10)
Excerpt: cDNA for the wild type ESR1 was PCR amplified from a breast cell line MCF7 with the introduction of an N-terminal FLAG tag. cDNA encoding the relevant mutations of ESR1 were generated by site-directed mutagenesis (QuikChange, Agilent) and full-length constructs were fully sequenced. All the ESR1 variants were placed in the Lentivial vector pCDH (System Biosciences) for eukaryotic expression.
Once cells attached, replaced medium with DMEM containing 10% charcoal-dextran treated FBS (HyClone) and cultured overnight. The next day, cells were transiently co-transfected with ESR1-expression plasmid at 50 ng/well and luciferase reporter constructs at 25 ng per well (SABiosciences) using the FuGene 6 reagent (Promega). The ER-responsive luciferase plasmid encoding the firefly luciferase reporter gene is driven by a minimal CMV promoter and tandem repeats of the estrogen transcriptional response element (ERE). A second plasmid constitutively expressing Renilla luciferase is served as an internal control for normalizing transfection efficiencies (Cignal ERE Reporter, SABiosciences). After transfection for 18 hrs, cells were serum-starved for a few hours before treatment with 13-estradiol or anti-estrogen drugs. Cells were harvested 18 hr post-treatment, and luciferase activity was measured using the Dual-Luciferase Reporter Assay System (Promega). […]

inhibition of wild-type ER reporter (transactivation) activity: inhibited in a dose-dependent fashion
Structure (SMILES): C[C@]12CC[C@@H]3c4ccc(O)cc4C[C@@H](CCCCCCCCC[S+]([O-])CCCC(F)(F)C(F)(F)F)[C@H]3[C@@H]1CC[C@@H]2O (stereo partly shown) [fulvestrant, Fulvestrant]
